Data as given in US20080241276A1, “Portable bio-chemical decontaminant system and method of using the same” (published 2008).

Assays:
Experiment in all cases: Antimicrobial efficacy (FIG. 7), one minute
Conditions in all cases: lapse time one minute; below detection limit
[1] = tested on: MS2
[2] = tested on: B. subtilis
[3] = tested on: K. terrigena

## chlorine dioxide
[1]
  log kill: greater than 5 log
[2]
  log kill: greater than 6 log
[3]
  log kill: greater than 6 log
